This test concerns the target cloned human dopamine D3 receptors (Homo sapiens, UniProt P35462). The experiment in a line: [N-Methyl-3H]Spiroperidol binding to cloned human dopamine D3 receptors (Protocol 1). The source says: [N-Methyl-^3H]Spiroperidol Binding to Cloned Human Dopamine D3 Receptors
This assay measures the in vitro activity of compounds on cloned human dopamine (D3) receptors and predicts the direct dopamine-blocking properties of putative neuropsychiatric agents at human dopamine D3 receptors.
The D3 gene was isolated from a human striatal cDNA library (Stratagene). The gene was sequenced and sub-cloned into the expression vector RC/RSV (Invitrogen). CHO (Chinese Hamster Ovary) cells were stably transfected with 10 μg of the D3/RSV plasmid using the DOTAP method from Boehringer Mannheim and 72 clones that were G418 resistant were isolated. Using mRNA and binding displacement data a single high expressing clone was identified. This clone was then grown in large batches for the purpose of developing a 96 well format assay.
• 1. One plate (10 cm) with approximately 2-3 million D3 cells per plate is incubated with 1 ml of Trypsin-EDTA at room temperature for ˜2 min or until cells have lifted off plates. Four ml of Ham's F12+10% Fetal Bovine Serum+1% Penicillin/Streptomycin+G418 (400 μg/ml) medium are added to resuspend cells and 1 ml of this is added to each large plate (15 cm) containing 19 ml of the-same medium as mentioned above. • 2. The 5 large plates are incubated at 37° C.+5% CO2 for ˜3 days or until the cells are confluent. • 3. After these plates are confluent, they are split into 10 large plates. Medium is aspirated off, 2 ml of Trypsin-EDTA are added to each plate and plates are incubated at RT for 2 min or until cells have lifted off the plate. Eight ml of the F12 medium (same medium as #1 above) are added to each plate (10 ml total) to resuspend the cells and 5 ml are transferred to the 2 new plates containing 15 ml of the F12 media. • 4. The 10 large plates are incubated at 37° C.+5% CO2 for ˜2 days or until the cells are confluent. • 5. The 10 large plates are split into 60 large plates (using Trypsin-EDTA as #3 except 4 ml of F12 medium are added to resuspend cells and 1 ml is aliquoted to 6 new plates containing 19 ml of F12 medium each). • 6. Plates are incubated at […]+5% CO2 for ˜3 days or until cell are confluent. • 7. The 60 large plates are then split into 60 roller bottles (100-150 million cells/bottle). Medium is aspirated off, 2 ml of Trypsin-EDTA are added to each plate and incubated at RT for ˜2 minutes or until cells have lifted off plates. Eight ml of F12 medium are added to each plate to resuspend cells and the entire 10 ml are added to 1 roller bottle containing 90 ml of the F12 medium. • 8. The 60 roller bottles are immediately placed on their sides and transferred to the roller bottle incubator. They are incubated at 37° C.+5% CO2 for ˜3-5 days. Cells are spun at 30-40% motor speed in the Forma incubator. • 9. Medium is poured off and cells are washed 2× in PBS. • 10. Cells are then scraped off in 20 ml of PBS and the bottles are rinsed again with 5 ml of PBS to remove any remaining cells. Cells are stored on ice before membrane preparation. • 11. The yield for 60 D3 roller bottles has varied from ˜260-500 mg. • Note: All tissue culture reagents are from Gibco-BRL. C. Membrane Preparation
The cells are harvested into 250 ml centrifuge tubes with 100 volumes of cold phosphate buffered saline (PBS) and spun down (1200×G for 10 min at 4° C.). The medium is removed and 100 ml PBS are added to each centrifuge tube, cells are resuspend and spun down again. The PBS is removed and the final pellet is homogenized in an appropriate volume of 10% DMSO with a polytron on ice at a medium setting.
1. 0.5M Tris Buffer, pH 7.7 • a) 44.4 g Tris HCl 26.5 g Tris Base q.s. to 1 Liter (0.5 M Tris buffer, pH 7.7 at 37° C.) • b) make a 1:10 dilution in distilled H2O (0.05 M. Tris buffer, pH 7.7) 2. Tris Buffer Containing Physiological Salts • a) Stock buffer • NaCl 7.014 g • KCl 0.372 g • CaCl2 0.222 g • MgCl2 0.204 g • q.s. To 100 ml with 0.5 M. Tris Buffer • b) Dilute 1:10 in distilled H2O […]

The chains behind the UniProt entries cited, without tags or fusion partners.
UniProt P35462, whole entry: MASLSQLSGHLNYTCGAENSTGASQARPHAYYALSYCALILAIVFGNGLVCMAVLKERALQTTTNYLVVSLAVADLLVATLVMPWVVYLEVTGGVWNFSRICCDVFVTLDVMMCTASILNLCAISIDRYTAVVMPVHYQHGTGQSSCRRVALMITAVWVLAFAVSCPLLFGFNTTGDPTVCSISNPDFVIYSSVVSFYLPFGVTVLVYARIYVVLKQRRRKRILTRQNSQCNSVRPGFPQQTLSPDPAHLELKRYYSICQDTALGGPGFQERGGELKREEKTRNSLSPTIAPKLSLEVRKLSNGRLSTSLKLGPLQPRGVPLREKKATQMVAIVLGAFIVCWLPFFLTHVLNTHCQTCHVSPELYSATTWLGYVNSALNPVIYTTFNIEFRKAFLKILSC

The mark [1] stands for this setting: read-out: D3Ki, the 13th table, unit inferred, tested form: maleate.

Structures are written as SMILES. Like-named read-outs stand apart in the source and are kept apart here.

Take `COc1ccc(C(=O)NCC(CO)CCN2CCN(c3csc4cc(C(F)(F)F)ccc34)CC2)cc1OC` (stereo not shown): for the setting “read-out: D3K1, Table 2”, the Ki is 166 nM.
Consider `O=C(NCC(CO)CCN1CCN(c2csc3cc(C(F)(F)F)ccc23)CC1)c1ccccc1O` (stereo not shown), for which the Ki (read-out: D3K1, Table 2) worked out at 188 nM.
`CC1(C)[C@@H](CNC(=O)c2cc3ccccc3s2)[C@@H]1CN1CCN(c2csc3cc(C(F)(F)F)ccc23)CC1`: the Ki (read-out: D3K1) was 54 nM.
In the case of `C=CCN(CC=C)CC1CC1CN1CCCN(c2csc3cc(F)ccc23)CC1` (racemic), the Ki (read-out: D3 Ki, the 23rd table) amounted to 22.5 nM.
Turning to `CCCCOc1ccc(C(=O)NCC(CO)CCN2CCN(c3csc4cc(C(F)(F)F)ccc34)CC2)cc1` (stereo not shown), the Ki (read-out: D3K1, Table 2) was found to be 277 nM.
`Cc1c(C(=O)NCC(CO)CCN2CCN(c3csc4cc(C(F)(F)F)ccc34)CC2)cnn1-c1ccccc1` (stereo not shown): under “read-out: D3K1, Table 2”, the Ki turned out to be 295 nM.
The same measure, in the same setting: to `O=C(NCC(CO)CCN1CCN(c2csc3cc(C(F)(F)F)ccc23)CC1)c1ccccc1` (stereo not shown) belongs 131 nM; to `O=C(NCCCCN1CCN(c2c(F)sc3cc(F)ccc23)CC1)c1cccs1`, 1.23 nM; to `COc1ccc2[nH]c(C(=O)NC/C=C/CN3CCN(c4csc5cc(C(F)(F)F)ccc45)CC3)cc2c1`, 22.4 nM.
The same measure, in the same setting: to `O=C(NCCCCN1CCN(c2c(F)sc3cc(F)ccc23)CC1)c1ccc(Cl)cc1` belongs 0.799 nM.
`O=C(NC/C=C\CN1CCN(c2csc3cc(C(F)(F)F)ccc23)CC1)c1cc2ccccc2[nH]1`: the Ki (read-out: D3K1, Table 2) was 18.3 nM.
For `COc1ccc(C(=O)NCCC[C@@H](CO)N2CCN(c3csc4cc(C(F)(F)F)ccc34)CC2)cc1OC`, where the note is “read-out: D3K1, Table 2”, the Ki was found to be 479 nM.
For `O=C(NCCCCN1CCN(c2c(F)sc3cc(F)ccc23)CC1)c1ccc(C(F)(F)F)cc1`, for the setting “read-out: D3K1, Table 2”, the Ki was 3.8 nM.
Same read-out and setting: the result for `O=C(NCC(CO)CCN1CCN(c2csc3cc(C(F)(F)F)ccc23)CC1)c1ccc(Br)cc1` (stereo not shown) reads 285 nM.
`O=C(NCCCCN1CCN(c2c(F)sc3cc(F)ccc23)CC1)c1c(F)cccc1F`: the Ki (read-out: D3K1, Table 2) is 3.23 nM.
In the case of `CC1(C)[C@@H](CNC(=O)C2CCCCC2)[C@@H]1CN1CCN(c2csc3cc(C(F)(F)F)ccc23)CC1`, under “read-out: D3K1”, the Ki came out at 163 nM.
In the case of `O=C(NCC(CO)CCN1CCN(c2csc3cc(C(F)(F)F)ccc23)CC1)c1cccc(C(=O)c2ccccc2)c1` (single isomer, unassigned) [818912ES], the Ki (read-out: D3K1, Table 2) was found to be 135 nM.
`O=C(NCCC[C@@H](CO)N1CCN(c2csc3cc(C(F)(F)F)ccc23)CC1)c1ccco1`: under “read-out: D3K1, Table 2”, the Ki is 492 nM.
As for `CC(=O)Nc1ccc(C(=O)NCCC[C@@H](CO)N2CCN(c3csc4cc(C(F)(F)F)ccc34)CC2)cc1`, the Ki (read-out: D3K1, Table 2) was found to be 173 nM.
Regarding `O=C(NC[C@@H]1CC[C@H]1CN1CCN(c2csc3cc(C(F)(F)F)ccc23)CC1)c1cc2ccccc2s1` (relative stereo), for the setting “read-out: D3K1”, the Ki was 43 nM.
For the compound `CC1=C(C(=O)NCCCCCCN2CCN(c3csc4cc(C(F)(F)F)ccc34)CC2)Cc2ccccc21`, the Ki by setting is: (read-out: D3K1) 4 nM; (read-out: D3 Ki, the 14th table) 4 nM.
Consider `O=C(NC[C@@H]1CC[C@H]1CN1CCN(c2csc3cc(C(F)(F)F)ccc23)CC1)c1cc2ccccc2[nH]1` (relative stereo), for which, for the setting “read-out: D3K1”, the Ki is 49 nM.
`O=C(NCCC(CO)CN1CCN(c2csc3cc(C(F)(F)F)ccc23)CC1)c1ccc(-c2ccccc2)cc1` (stereo not shown): for the setting “read-out: D3K1, Table 2”, the Ki was determined as 464 nM.
Still for that read-out and setting: the result for `O=C(NCCCCN1CCN(c2c(F)sc3cc(F)ccc23)CC1)c1ccc(-c2ccccc2)cc1` reads 0.5 nM.
Consider `O=C(NCCCCN1CCCN(c2csc3cc(F)ccc23)CC1)c1cccc2[nH]ccc12` [S977823], for which, under setting [1], the Ki worked out at 1.16 nM.
Regarding `O=C(NCC(CO)CCN1CCN(c2csc3cc(C(F)(F)F)ccc23)CC1)c1cccc(F)c1` (stereo not shown), where the note is “read-out: D3K1, Table 2”, the Ki stood at 190 nM.
With `O=C(NCCCCN1CCCN(c2csc3cc(F)ccc23)CC1)c1ccc2cc[nH]c2c1` [S977825], the Ki under setting [1] worked out at 0.725 nM.
Regarding `O=C(NCC(CO)CCN1CCN(c2csc3cc(C(F)(F)F)ccc23)CC1)c1ccccc1Cl` (stereo not shown), the Ki (read-out: D3K1, Table 2) was 339 nM.
The same measure, in the same setting: to `CCOc1ccc(C(=O)NC/C=C/CN2CCN(c3csc4cc(C(F)(F)F)ccc34)CC2)cc1` [817402] belongs 150 nM; to `CC(=O)Nc1ccc(C(=O)NCCC[C@H](CO)N2CCN(c3csc4cc(C(F)(F)F)ccc34)CC2)cc1`, 474 nM.

These data come from patent US7550469B2, “Heterocyclic amide derivatives and their use as dopamine D3 receptor ligands” (Aventis Pharmaceuticals Inc., priority 2001, dated 2009).
